A selection: hits, their analogues and other compounds. The true share with any hit is near 1.8%.
Cneo AK release: causes C. neoformans cell lysis; adenylate kinase release luminescence, 4 h; normalised: neutral wells 0, clomiphene wells 100; lysis activity, % at 15 µM; 0.2% of 360,000 active;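 active = mean lysis activity across replicates of at least 80%, whatever share of replicates individually reach that level; inactive = mean lysis activity below 80%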
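Material: C. neoformans cells; Schedule: 4 h static compound exposure, 37 °C, read 1 h post-reagent; Measured by: adenylate kinase release luminescence; Read-out: signal increase indicating cell lysis; Controls: Clomiphene as positive lysis control.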
E-selectin induc: induces E-selectin expression in human endothelial cells | activation, % at 7.58 µM | HUVEC E-selectin immunofluorescence imaging; normalized: neutral wells 0, TNF-alpha wells 100 | P16581 | 0.37% of 260,000 active;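 active = mean E-selectin-positive cell signal at least 10% of the positive control, reached in at least 60% of replicates, without over 20% cell loss; inconclusive = no rule given, readout overlaps actives, possibly toxicity-flagged; inactive = the rest, including those meeting only one limit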
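System: HUVEC, human umbilical vein endothelial cells; quantity: 3,000 cells/well; buffer or medium: EGM-2 medium, gelatin-coated wells; dosing: single-point compound dose; detection: immunofluorescence imaging; evaluation: % PE-positive cells; benchmarks: TNF-alpha, DMSO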
DENV2 CPE: inhibitors of DENV2 cytopathic effect; AID 651640; 1.7% of 350,000 active; DENV2-infected cells, cytopathic effect rescue, plate reader; CPE inhibition, % at 9.99 µM; in the data active = CPE inhibition above about 20%, passing the limit was not always enough; inconclusive = no clear call, values can overlap the other calls; tested in BHK-21 cells;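 also: 0% = median of neutral control wells and 100% = median of positive control wells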
UUG fidelity: modulators of start codon recognition fidelity in yeast; AID 602363; activity score, % at 18.7 µM; S. cerevisiae UUG-firefly luciferase reporter, luminescence/redox ratio; actives 0.13% (n = 350,000);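 active = replicate mean at a twofold rise or more, about +100% in these data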;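 note: firefly luciferase made from a UUG start codon reports start codon fidelity; reporter light over untreated wells divided by growth signal over untreated wells; some hits fall short of that in this replicate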
An asterisk follows results filed as active; ? = inconclusive; . = not tested or not shown.

SMILES	Cneo AK release	E-selectin induc	DENV2 CPE	UUG fidelity
CC(C)(C)n1nnnc1C(c1cc2ccccc2o1)N1CCCC1 (stereo not given)	.	0	-5	.
CC(C)(C)n1nnnc1C(c1cc2ccccc2o1)N1CCOCC1 (stereo not given)	.	0	107*	.
Cc1noc(C)c1NC(=O)N(C)C[C@@H]1OCCCC[C@H](C)Oc2ccc(NC(=O)Cc3ccccc3)cc2C(=O)N([C@H](C)CO)C[C@H]1C	6	0	5	-6
COc1cc(C(=O)N2CCN(C3CCCCC3)CC2)cc(OC)c1OC	0	.	-3	-4
COc1ccc(C(=O)N2CCN(C3CCCCC3)CC2)cc1OC	0	.	31*	-19
Cc1ccc2c(C)c(C(=O)N3CCN(Cc4ccccn4)CC3)oc2c1C	82*	0	?	-25
COc1ccc(S(=O)(=O)N(C)C[C@@H]2OCCCC[C@@H](C)Oc3ccc(NS(=O)(=O)c4cccs4)cc3C(=O)N([C@@H](C)CO)C[C@@H]2C)cc1	6	0	-13	-20
c1ccc(-c2cc3ccccc3[nH]2)cc1	-3	0	27*	-12
COc1ccc(-c2cc3ccccc3[nH]2)cc1	-5	.	2	-9
CCCc1cn([C@H]2C[C@@H]3O[C@@H](CO)CC[C@@H]3O[C@@H]2CCc2ccc(-c3ccc(OC)cc3)cc2)nn1	.	.	-7	.
Cc1ccc(CNC(=O)C2CCC(=O)N(CCc3ccccn3)C2)s1 (stereo not given)	1	3	33*	-3
COc1ccc(CCN2CC(C(=O)NCCc3ncccc3C)CCC2=O)cc1 (stereo not given)	1	0	34*	-26
CN(C)c1ccc(CCc2ccc(N)cc2)cc1	-1	.	26*	-14
Brc1ccc(-c2noc3c2-c2nc(-c4ccccc4)sc2CC3)cc1	-1	0	129*	0
CN(C)CCCNC(=O)C[C@@H]1C=C[C@H](NS(=O)(=O)c2ccc(F)cc2)[C@@H](CO)O1	2	-3	-1	10
C[C@@H]1CCCCO[C@H](CN(C)Cc2ccc3c(c2)OCO3)[C@@H](C)CN([C@@H](C)CO)C(=O)c2cc(NC(=O)C3CCCCC3)ccc2O1	-3	0	-3	10
O=C(CC1NCCN(Cc2ccccc2)C1=O)Nc1ccccc1 (stereo not given)	4	0	72*	-12
CCCC#Cc1ccc([C@@H]2[C@@H](CO)N3C(=O)CN(C(=O)c4ccncc4)C[C@H]23)cc1	.	0	2	.
CC(C)(C)c1ccc(C(=O)Nc2ccc3c(c2)C(=O)NC3=O)cc1	3	137*	58*	1
CCOC(=O)c1ccc(N2C(=O)CC(SCC(=O)Nc3ccc(S(N)(=O)=O)cc3)C2=O)cc1 (stereo not given)	.	.	-5	.
COC(=O)c1ccc(N2C(=O)CC(SCC(=O)Nc3ccc(OC)cc3)C2=O)cc1 (stereo not given)	.	58*	5	.
O=C(NCCN1CCOCC1)c1ccc2c(c1)N(Cc1ccc(F)cc1)C(=O)CS2	-2	-1	64*	-3
C[C@@H]1CN([C@@H](C)CO)C(=O)c2cccc(NC(=O)Nc3ccc(F)cc3)c2O[C@@H]1CN(C)C(=O)NC1CCCCC1	.	-18	.	1
C[C@@H]1CN([C@@H](C)CO)C(=O)Cc2cc(NS(C)(=O)=O)ccc2O[C@H]1CN(C)Cc1ccc(C(=O)O)cc1	-2	-3	-4	0
CC(=O)NCc1ccc(C(=O)CCl)cc1	2	0	13	-7

(continued)
SMILES	Cneo AK release	E-selectin induc	DENV2 CPE	UUG fidelity
CC(=O)Nc1ccc(C(=O)CCl)cc1	-3	.	27*	-27
Cc1noc(C)c1NC(=O)N(C)C[C@@H]1Oc2ccc(NS(=O)(=O)c3ccccc3)cc2C(=O)N([C@@H](C)CO)C[C@H]1C	2	0	-10	-17
C[C@@H]1CN([C@H](C)CO)C(=O)Cc2cc(NS(=O)(=O)c3ccccc3)ccc2O[C@@H]1CN(C)Cc1ccc(-c2ccccc2)cc1	1	0	56*	2
COc1ccc(S(=O)(=O)Nc2ccc3c(c2)CC(=O)N([C@H](C)CO)C[C@@H](C)[C@H](CN(C)Cc2ccc(-c4ccccc4)cc2)O3)cc1	-1	0	57*	9
C[C@H](CO)N1C[C@H](C)[C@H](CN(C)Cc2ccccc2)Oc2ccc(NS(=O)(=O)c3ccccc3)cc2CC1=O	2	0	55*	2
C[C@H]1CN([C@@H](C)CO)C(=O)Cc2cc(NS(=O)(=O)c3ccccc3)ccc2O[C@@H]1CN(C)Cc1ccccc1	8	0	-14	-5

An excerpt from above, showing only UUG fidelity and E-selectin induc:
SMILES | UUG fidelity | E-selectin induc
C[C@@H]1CN([C@H](C)CO)C(=O)Cc2cc(NS(=O)(=O)c3ccccc3)ccc2O[C@@H]1CN(C)Cc1ccc(-c2ccccc2)cc1 | 2 | 0
CC(=O)Nc1ccc(C(=O)CCl)cc1 | -27 | .
C[C@H]1CN([C@@H](C)CO)C(=O)Cc2cc(NS(=O)(=O)c3ccccc3)ccc2O[C@@H]1CN(C)Cc1ccccc1 | -5 | 0
C[C@H](CO)N1C[C@H](C)[C@H](CN(C)Cc2ccccc2)Oc2ccc(NS(=O)(=O)c3ccccc3)cc2CC1=O | 2 | 0
